Literature values, collected in patent publication US11534589B2, “Iontophoretic microneedle device” (LTS LOHMANN THERAPIE-SYSTEME AG, priority 2017, dated 2022).

Conditions: PMVE/Ma microneedles with iontophoresis compared to microneedle or iontophoresis alone

Substance: bovine insulin
- Delivery through porcine skin: increased delivery
